According to US20070129350A1, “Methods for treatment of diabetes” (published 2007):

Tested on: non-obese diabetic mice
Test: Effect on insulin resistance: glucose infusion rate during insulin activity
Conditions: test compound given before insulin (phenserine approximately 30 minutes prior); glucose infused to maintain steady glucose level; relative to control animals

With `CN1CC[C@@]2(C)c3cc(OC(=O)Nc4ccccc4)ccc3N(C)C12` (stereo partly shown) the “rate of glucose infusion” value was “increase the rate of glucose infusion”.
